{
  "source": "patent US20060128773A1",
  "about": "“Wood preservatives and waterproofing compositions and processes” (priority 2004, published 2006)",
  "key": {"[1]": {"experiment": "Leaching study of treated wood test blocks into water (Example 4)", "format": "physicochemical", "details": "average of three blocks, room temperature, start Sep. 1, 2004", "procedure": "In this example test blocks were prepared in accordance with the procedure of Example 1 and subjected a leaching study using the following procedure. • 1. The wood test blocks were placed in 500 ml plastic containers with screw caps. • 2. Water was added to the containers to over flowing and the container was sealed. • 3. The containers were stored at room temperature.\n4. After two days the containers were opened and the leachate was analyzed for active quaternary compound (QAC) using a Hach DR/2400 Spectrophotometer."}, "[2]": {"experiment": "Leaching study of treated wood test blocks into water (Example 2)", "format": "physicochemical", "details": "average of three blocks, room temperature, after two days", "procedure": "Wood test blocks prepared in accordance with Example 1, were subjected to a leaching study.\nIn this leaching study the following procedure was observed. • 1. The wood test block was placed in 500 ml plastic containers with screw caps. • 2. Water was added to the container to over flowing and the container was sealed. • 3. The containers were stored at room temperature. • 4."}},
  "data": [
    {"substance": "alkyl dimethyl benzyl ammonium saccharinate [ADBAS]", "values": [
      {"measurement": "AVERAGE active quaternary compound in leachate, FINAL DATE Sep. 5, 2004", "setting": "[1]", "value": 59.33, "unit": "PPM QAC"},
      {"measurement": "AVERAGE active quaternary compound in leachate, FINAL DATE May 8, 2004", "setting": "[2]", "value": 13.9, "unit": "PPM QAC"},
      {"measurement": "amount water soluble in ethanol and water", "setting": "approximately equal volumes of ethanol and water, approximately 150° F., by weight of the solution", "value": "≤ 5", "unit": "%"},
      {"measurement": "water solubility", "setting": "water", "value": "extremely water insoluble"}
    ]}
  ]
}
